The text below walks through data of patent US12440833B2, “Sample containers adapted for acoustic ejections and sample preservation and methods thereof” (priority 2011, dated 2025).

Like-named read-outs stand apart in the source and are kept apart here.

Assay [1] deals with T1, TPCK trypsin (Bos taurus, UniProt P00760).
T1 construct: purchased Thermo Scientific Pierce 23266
T1 sequence (P00760 24-246): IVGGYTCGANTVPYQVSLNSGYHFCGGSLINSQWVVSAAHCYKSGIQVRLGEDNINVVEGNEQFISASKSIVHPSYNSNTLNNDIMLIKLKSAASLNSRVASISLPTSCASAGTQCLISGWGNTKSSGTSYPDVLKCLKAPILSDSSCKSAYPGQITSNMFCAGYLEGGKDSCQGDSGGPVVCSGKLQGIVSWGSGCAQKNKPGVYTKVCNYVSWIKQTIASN
The class given is biochemical. The protocol: (§1) Protease activity and the inhibition thereof were measured with a Fluorescent Protease Assay Kit (Thermo Scientific Pierce, catalog number 23266). TRIS-buffered saline (TBS, 25 mM Tris, 0.15 M NaCl, pH 7.2) was reconstituted from dry solids in the kit with deionized water. Trypsin stock solution was freshly prepared by dissolving TPCK trypsin from kit with 1 mL deionized water to make a 50 mg/mL solution. Aliquots of 10 μL were stored at −60° C. Individual aliquots of the stock solution were diluted in 1.0 mL of TBS (0.5 mg/mL), and 10 μL of this solution was further diluted in 10 mL of TBS (0.5 μg/mL). This solution was serially diluted 1:1 with TBS to create a trypsin solution of 62.5 ng/mL. The trypsin solution was kept in an ice bath until use. 200 μL of the diluted trypsin (12.5 ng) was added to each prepared polypropylene tube. The solution was aspirated and re-dispensed three times in each tube to assure complete mixing and contact of the solution with the derivatized internal walls of the tubes. A new disposable tip was used for each transfer. After incubation at room temperature for 120 minutes, 100 μL of the trypsin solution from each tube was placed into individual wells of a 96-well, black, flat-bottomed plate (Greiner Bio-one, catalog number 655076, Monroe, N.C.). FTC-casein—(casein protein modified by the addition of fluorescein isothiocyanate, a part of the Fluorescent Protease Assay Kit) solution in TBS buffer was freshly prepared and 100 μL of this solution was added to each well and mixed via aspiration and dispense. The plate was incubated at room temperature for 95 minutes. The fluorescence of the samples in the 96-well plate was measured on a SpectraFluor Plus fluorescence spectrometer (Tecan, Mannedorf, Switzerland) 5 minutes after the solution was added and additionally after 10, 20, 40, 60 and 95 minutes. Increased fluorescence is indicative of trypsin-mediated digestion of the added FTC-casein solution via the decrease of FRET-based fluorescence quenching that exists in the intact protein.

Assay [2] concerns the target T1, TPCK trypsin. The class given is biochemical. The protocol: as §1, with “solution. […]” for “solution.”, “FTC-casein—(casein protein modified by the addition of fluorescein isothiocyanate, a part of the Fluorescent Protease Assay Kit) solution in TBS buffer was freshly prepared and 100 μL of this solution was added to each well and mixed via aspiration and dispense.” left out, “The fluorescence of the samples in the 96-well plate was measured on a SpectraFluor Plus fluorescence spectrometer (Tecan, Mannedorf, Switzerland) 5 minutes after the solution was added and additionally after 10, 20, 40, 60 and 95 minutes.” left out
This is another data set of the same source.

Where [3] appears, read: 1.0 mM AEBSF in the well (not immobilized), after 20 minutes, background 5382 RFU.

For the compound `Cl.NCCc1ccc(S(=O)(=O)F)cc1` [AEBSF Ligand, 4-(2-aminoethyl)benzenesulfonyl fluoride hydrochloride], the “fluorescence of wells that contained FTC-casein, trypsin and inhibitor” value in assay [1] (setting [3]) and in assay [2] (setting [3]) was 5265 RFU each time. Moreover, the “average fluorescence of wells with trypsin exposed to tubes with immobilized ligand” value in assay [1] (Example B, ligand immobilized on tube wall, 12.5 ng trypsin per tube, 120 minutes at room temperature, background 5382 RFU) came out at 12592 RFU; in assay [2] (Example A, ligand immobilized on tube wall, 12.5 ng trypsin per tube, 120 minutes at room temperature, background 5382 RFU), 13164 RFU. Also, the “inhibition of trypsin activity” value is 53% in assay [1] (Example B, ligand immobilized on tube wall, trypsin exposed 120 minutes at room temperature) and 50% in assay [2] (Example A, ligand immobilized on tube wall, trypsin exposed 120 minutes at room temperature).
